Biological target: T1, hCLL-1 on U937 human AML cells (human, UniProt Q5QGZ9 1-265)
T1 sequence (looked up): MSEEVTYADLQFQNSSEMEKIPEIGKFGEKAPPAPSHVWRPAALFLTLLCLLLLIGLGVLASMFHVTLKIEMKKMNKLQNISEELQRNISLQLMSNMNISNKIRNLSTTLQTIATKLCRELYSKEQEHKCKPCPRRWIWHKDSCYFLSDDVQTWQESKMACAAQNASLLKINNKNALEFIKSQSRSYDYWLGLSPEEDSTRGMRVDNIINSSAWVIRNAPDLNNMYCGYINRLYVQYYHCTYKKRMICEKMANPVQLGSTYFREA
Test: cell-based or functional assay

B1: DAR4-ARC-ADC (DAR4-ARC-IgG conjugated with 2'-Cl-araNAD+-MMAF) (antibody)
heavy: DIQLQESGPGLVKPSQSLSLTCSVTGYSITSAYYWNWIRQFPGNKLEWMGYISYDGRNNYNPSLKNRISITRDTSKNQFFLKLNSVTTEDTATYYCAKEGDYDVGNYYAMDYWGQGTSVTVSSARTKGPSVFPLAPSSKSTSGGTAALGCLVKDYFPEPVTVSWNSGALTSGVHTFPAVLQSSGLYSLSSVVTVPSSSLGTQTYICNVNHKPSNTKVDKKV[about 500 residues with a human IgG1 Fc skipped]
light: ENVLTQSPAIMSASPGEKVTMTCRASSNVISSYVHWYQQRSGASPKLWIYSTSNLASGVPARFSGSGSGTSYSLTISSVEAEDAATYYCQQYSGYPLTFGAGTKLELKRAAAAPSVFIFPPSDEQLKSGTASVVCLLNNFYPREAKVQWKVDNALQSGNSQESVTEQDSKDSTYSLSSTLTLSKADYEKHKVYACEVTHQGLSSPVTKSFNRGECGGGGS[about 250 residues skipped]
modifications: 2'-Cl-arabinose-ADP-MMAF on Glu226 of the CD38 domain (CD38 numbering)
in vitro cytotoxicity EC50 on U937 (CLL-1+) cells (MTT, 72 hours): 0.025 nM
